# Tests used:
# Sequences of proteins named here, by UniProt entry; tags and fusion partners are left off. Residues count along the entry.
# UniProt P10635, whole entry: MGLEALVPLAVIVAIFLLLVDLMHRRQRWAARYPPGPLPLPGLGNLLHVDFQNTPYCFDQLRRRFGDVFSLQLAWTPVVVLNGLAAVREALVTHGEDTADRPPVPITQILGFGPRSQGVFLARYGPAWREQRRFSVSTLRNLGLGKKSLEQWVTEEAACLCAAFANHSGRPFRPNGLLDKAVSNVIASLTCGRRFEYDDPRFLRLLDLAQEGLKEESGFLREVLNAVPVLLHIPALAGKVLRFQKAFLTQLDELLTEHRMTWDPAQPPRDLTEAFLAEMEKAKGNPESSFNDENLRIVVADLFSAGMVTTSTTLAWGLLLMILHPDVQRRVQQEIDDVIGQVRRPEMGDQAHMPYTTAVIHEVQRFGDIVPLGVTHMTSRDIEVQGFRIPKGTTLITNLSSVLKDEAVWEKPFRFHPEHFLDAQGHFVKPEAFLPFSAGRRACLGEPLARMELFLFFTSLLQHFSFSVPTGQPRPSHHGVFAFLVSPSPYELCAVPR
# UniProt P41180, 20-1078 limits assumed: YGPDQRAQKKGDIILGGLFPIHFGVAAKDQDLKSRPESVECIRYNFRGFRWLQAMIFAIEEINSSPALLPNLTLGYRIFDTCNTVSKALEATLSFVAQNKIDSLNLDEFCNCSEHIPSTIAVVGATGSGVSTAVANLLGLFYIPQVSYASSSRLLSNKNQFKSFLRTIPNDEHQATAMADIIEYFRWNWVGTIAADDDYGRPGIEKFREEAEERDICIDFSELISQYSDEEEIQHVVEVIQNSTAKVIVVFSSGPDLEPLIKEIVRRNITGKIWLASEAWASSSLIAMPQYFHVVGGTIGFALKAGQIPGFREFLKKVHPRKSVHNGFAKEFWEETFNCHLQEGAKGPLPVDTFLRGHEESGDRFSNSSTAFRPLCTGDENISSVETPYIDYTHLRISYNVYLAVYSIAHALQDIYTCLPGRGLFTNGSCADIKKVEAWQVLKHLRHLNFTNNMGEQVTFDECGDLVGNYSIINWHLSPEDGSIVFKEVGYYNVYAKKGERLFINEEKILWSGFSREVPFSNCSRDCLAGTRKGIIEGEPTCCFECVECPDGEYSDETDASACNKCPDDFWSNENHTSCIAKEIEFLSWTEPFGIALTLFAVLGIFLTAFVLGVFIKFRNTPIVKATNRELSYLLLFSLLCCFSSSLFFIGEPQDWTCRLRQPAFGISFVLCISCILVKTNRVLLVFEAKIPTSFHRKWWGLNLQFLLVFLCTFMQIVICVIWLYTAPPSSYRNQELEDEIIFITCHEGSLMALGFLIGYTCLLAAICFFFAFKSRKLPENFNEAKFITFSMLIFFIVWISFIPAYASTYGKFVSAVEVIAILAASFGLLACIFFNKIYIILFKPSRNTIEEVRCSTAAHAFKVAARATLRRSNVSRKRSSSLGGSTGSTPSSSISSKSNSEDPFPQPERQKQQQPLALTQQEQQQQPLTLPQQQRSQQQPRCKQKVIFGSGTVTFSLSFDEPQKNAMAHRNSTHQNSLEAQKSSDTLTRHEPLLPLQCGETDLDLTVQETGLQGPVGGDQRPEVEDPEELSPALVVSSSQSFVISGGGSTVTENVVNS
# [1] = biological target: CYP2D6 (Homo sapiens, UniProt P10635); assay: Human CYP2D6 inhibition test (fluorescence substrate AMMC); conditions: read-out: IC50 (concentration showing 50% inhibition), CYP2D6; recombinant CYP2D6, AMMC 1.5 μM, 37° C. 30 minutes; tested form: HCl
# Experimental: Test 3. Human CYP2D6 Inhibition Test
# Inhibitory activity evaluation for CYP2D6 was carried out by measuring it in accordance, roughly, with a reference (“Drug Metabolism and Disposition”, 2001, vol. 29, p. 1196-1200).
# Final concentrations of the reagents in the enzyme reaction solution were respectively ser to CYP2D6=[…] (mfd. by BD Gentest, Cat. No.: 456217), reduced type nicotinamide adenine dinucleotide phosphate (NADPH) regeneration system (0.0081 mM nicotinamide adenine dinucleotide phosphate (NADP+), 0.41 mM glucose-6-phosphate, 0.41 mM MgCl2, […] glucose-6-phosphate dehydrogenase), and a fluorescence substrate AMMC=1.5 μM, 100 mM potassium phosphate buffer (pH 7.4). Each compound was made into a 50% acetonitrile solution and added to the enzyme reaction solution (acetonitrile final concentration 2.5%). The enzyme reaction was carried out at 37° C. for 30 minutes, the reaction was stopped using a stopping liquid (0.1 M tris(hydroxymethyl)aminomethane (Tris-base):acetonitrile=20:80), and then fluorescence intensity was measured. The concentration showing 50% inhibition (IC50) was calculated from the thus obtained fluorescence intensity, by defining the enzyme activity at the time of no compound addition as 100%.
# [2] = Measurement of rat plasma calcium concentration after single oral administration; conditions: normal male rats, 3 mg/kg oral administration, tested form: HCl
# Experimental: Test 2. Measurement of Rat Plasma Calcium Concentration and Plasma PTH Concentration
# The compounds of the invention were administered to rats, and their influences upon the plasma calcium concentration and plasma PTH concentration were examined. The test was carried out by single oral administration of the compounds 5 or 6 normal male rats.
# As a vehicle group, an MC solution prepared by adding 0.5% methyl cellulose (MC) solution or ethanol to a final concentration of 5% was administered at a dose of 5 ml/kg. As the comparative control, cinacalcet was dissolved in the MC solution and administered at a dose of 3 mg/kg. Each of the compounds, of the invention was dissolved or suspended the MC solution, or dissolved in ethanol and then diluted with the MC solution as occasion demands, and administered at a dose of 1, 3 or 10 mg/kg.
# Blood samples were collected from the orbital venous plexus under ether anesthesia before the administration and 2Hours, 4Hours, or 8Hours in some cases, after the administration, and the plasma calcium concentration was measured using Calcium E-Test Wako (mfd. by Wako Pure Chemical Industries), and the plasma PTH concentration using Rat Intact PTH ELISA Kit (mfd. by Immutopics) or Rat Bioactive Intact PTH ELISA Kit (mfd. by Immutopics).
# [3] = biological target: human CaSR (Homo sapiens, UniProt P41180); assay: Human calcium sensing receptor (CaSR) agonistic activity test (FLIPR, Fluo-3 intracellular Ca2+); conditions: read-out: EC50 (compound concentration showing 50% activity), human CaSR agonistic activity; HEK 293 cell stably expressing human CaSR; 0.5 mM Ca2+ buffer; solvent group 0%, 2 mM Ca2+ group 100%; tested form: HCl
# Text: Test 1. Human Calcium Sensing Receptor (CaSR) Agonistic Activity Test
# • 1) Preparation of Human CaSR Expression Vector
# A DNA fragment coding for human CaSR was cloned in the standard method. Illustratively, using 203 to 2387 of NM_000388 as a DNA fragment D4, and 2210 to 3633 as a DNA fragment B2, they were amplified using a human kidney cDNA (mfd. by Invitrogen) as the template and using a DNA polymerase (a registered trade name: Pyrobest, mfd. by Takara Bio), and respectively cloned into a pCR2.1 vector using a pCR2.1-Topo vector (mfd. by Invitrogen). Next, DNA fragments prepared by digesting pCR2.1-D4 with SpeI and XbaI were inserted into the same sites of pcDNA3.1/Zeo(+) vector. Successively, the fragments prepared by digesting pCR2.1-B2 with SacI and XbaI were inserted into the SacI and XbaI sites of previously prepared pcDNA3.1/Zeo(+)-D4 (SpeI-XbaI), thereby obtaining a human CaSR expression vector pcDNA3.1/Zeo(+)-hCaSR in which human CaSR open reading frame (ORF) was contained in the pcDNA3.1/Zeo(+) vector. • 2) Preparation of Human CaSR Expression Cell […]
# The HEK 293 cell stably expressing human CaSR was inoculated into a poly-D-lysine-coated black clear bottom 96 well plate (mfd. by BD Bioscience). […] In this connection, the compound to be evaluated was used by optionally diluting with the washing buffer supplemented with 0.5 mM Ca^2+. […]
smiles,measurement,setting,value
C[C@@H](NC[C@H]1CN(C(=O)CCC(C)(C)C(=O)O)C[C@@H]1c1ccccc1)c1cccc2ccccc12,IC50,[1],≥ 6000 nM
same,Rat plasma calcium concentration reducing ratio (%) 4 hours after administration,[2],18%
same,EC50,[3],17 nM

# Reference: patent US7585886B2, “Pyrrolidine derivative or salt thereof” (Astellas Pharma Inc., priority 2005, dated 2009)
